Measurements: the NIST ThermoML archive (doi:10.1021/acs.jced.6b00332)
Numbers after ± are expanded uncertainties.

Experiment: mn = molality of the nth substance listed, in mol/kg
Settings: 100 kPa, Liquid, m1 = 0.01; for speed of sound: Frequency=3 MHz, Sing-around technique in a fixed-path interferometer; for mass density: Vibrating tube method

CCC[N+](CCC)(CCC)CCC.[I-] [tetrapropylammonium iodide] + O
Settings | mass density [kg/m3] | speed of sound [m/s]
293.15 K | 998.62 ± 0.3 | 1484.5 ± 1.2
298.15 K | 997.49 ± 0.3 | 1498.5 ± 1.2
303.15 K | 996 ± 0.3 | 1510.9 ± 1.2
308.15 K | 994.41 ± 0.3 | 1521.4 ± 1.2
313.15 K | 992.61 ± 0.3 | 1530.4 ± 1.2
318.15 K | 990.53 ± 0.3 | 1538 ± 1.2
